# Experimental data from article PMC3116808 (Journal of natural products, 2011).
# Assay: Solubility in distilled water
# Conditions: in distilled water at 23 °C
row,Substance,Solubility [mg/mL]
1,Morpholine Auristatin TP [3d],>72
2,Nitroarginine Auristatin TP [3h],7
